Test results published in patent publication US20260382623A1, “NOVEL COMPOUND FOR INHIBITING PROTEIN KINASES AND PHARMACEUTICAL COMPOSITION COMPRISING SAME” (published 2026).

Chains of the proteins cited; added tags and fusions are not shown. Residues count along the entry.
UniProt O75716, whole entry: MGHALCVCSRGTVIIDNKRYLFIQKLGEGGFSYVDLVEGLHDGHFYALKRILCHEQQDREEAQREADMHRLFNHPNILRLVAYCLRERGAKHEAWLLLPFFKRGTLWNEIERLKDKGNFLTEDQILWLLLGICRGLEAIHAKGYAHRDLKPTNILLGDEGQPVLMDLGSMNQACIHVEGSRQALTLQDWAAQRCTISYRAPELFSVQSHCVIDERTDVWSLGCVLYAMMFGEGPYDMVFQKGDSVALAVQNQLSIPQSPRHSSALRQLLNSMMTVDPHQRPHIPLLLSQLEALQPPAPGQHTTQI
UniProt P06239, whole entry: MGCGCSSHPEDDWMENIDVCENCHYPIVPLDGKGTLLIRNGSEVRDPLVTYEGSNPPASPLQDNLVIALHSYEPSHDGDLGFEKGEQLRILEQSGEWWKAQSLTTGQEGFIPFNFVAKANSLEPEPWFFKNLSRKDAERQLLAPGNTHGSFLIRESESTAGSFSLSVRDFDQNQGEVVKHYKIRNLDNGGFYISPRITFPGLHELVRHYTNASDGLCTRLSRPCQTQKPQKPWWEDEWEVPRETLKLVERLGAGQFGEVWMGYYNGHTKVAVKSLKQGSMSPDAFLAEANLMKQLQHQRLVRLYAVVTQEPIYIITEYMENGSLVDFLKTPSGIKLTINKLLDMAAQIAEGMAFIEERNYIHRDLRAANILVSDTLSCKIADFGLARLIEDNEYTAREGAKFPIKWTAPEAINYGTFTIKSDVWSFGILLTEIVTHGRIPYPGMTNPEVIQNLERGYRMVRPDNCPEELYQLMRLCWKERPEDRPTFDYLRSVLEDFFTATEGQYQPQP
UniProt P07333, 20-972 limits assumed: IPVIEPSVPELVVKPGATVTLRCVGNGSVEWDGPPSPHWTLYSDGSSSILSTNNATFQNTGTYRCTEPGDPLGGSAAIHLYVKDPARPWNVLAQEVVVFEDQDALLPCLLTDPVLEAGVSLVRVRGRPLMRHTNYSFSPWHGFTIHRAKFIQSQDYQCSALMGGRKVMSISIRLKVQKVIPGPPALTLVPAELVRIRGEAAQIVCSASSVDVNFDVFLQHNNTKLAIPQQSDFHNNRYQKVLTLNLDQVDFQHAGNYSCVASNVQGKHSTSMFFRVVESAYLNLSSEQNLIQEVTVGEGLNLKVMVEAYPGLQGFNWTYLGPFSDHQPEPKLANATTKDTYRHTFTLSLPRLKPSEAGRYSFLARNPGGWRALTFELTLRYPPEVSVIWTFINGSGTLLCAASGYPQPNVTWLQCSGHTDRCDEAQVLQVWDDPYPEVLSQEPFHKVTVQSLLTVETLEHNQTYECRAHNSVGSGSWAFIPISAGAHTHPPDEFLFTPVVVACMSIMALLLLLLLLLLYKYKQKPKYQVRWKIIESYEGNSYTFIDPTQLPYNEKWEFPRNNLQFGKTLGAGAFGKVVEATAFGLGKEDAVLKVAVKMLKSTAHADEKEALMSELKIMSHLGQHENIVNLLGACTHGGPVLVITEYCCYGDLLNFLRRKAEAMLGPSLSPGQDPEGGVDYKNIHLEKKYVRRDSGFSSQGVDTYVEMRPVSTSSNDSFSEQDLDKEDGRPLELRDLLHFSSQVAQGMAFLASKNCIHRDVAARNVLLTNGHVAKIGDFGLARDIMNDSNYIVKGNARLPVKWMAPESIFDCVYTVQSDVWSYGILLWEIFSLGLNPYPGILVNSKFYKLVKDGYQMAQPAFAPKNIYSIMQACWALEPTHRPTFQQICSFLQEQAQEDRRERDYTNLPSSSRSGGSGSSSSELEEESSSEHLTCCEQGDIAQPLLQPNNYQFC
UniProt P10721, 26-976 limits assumed: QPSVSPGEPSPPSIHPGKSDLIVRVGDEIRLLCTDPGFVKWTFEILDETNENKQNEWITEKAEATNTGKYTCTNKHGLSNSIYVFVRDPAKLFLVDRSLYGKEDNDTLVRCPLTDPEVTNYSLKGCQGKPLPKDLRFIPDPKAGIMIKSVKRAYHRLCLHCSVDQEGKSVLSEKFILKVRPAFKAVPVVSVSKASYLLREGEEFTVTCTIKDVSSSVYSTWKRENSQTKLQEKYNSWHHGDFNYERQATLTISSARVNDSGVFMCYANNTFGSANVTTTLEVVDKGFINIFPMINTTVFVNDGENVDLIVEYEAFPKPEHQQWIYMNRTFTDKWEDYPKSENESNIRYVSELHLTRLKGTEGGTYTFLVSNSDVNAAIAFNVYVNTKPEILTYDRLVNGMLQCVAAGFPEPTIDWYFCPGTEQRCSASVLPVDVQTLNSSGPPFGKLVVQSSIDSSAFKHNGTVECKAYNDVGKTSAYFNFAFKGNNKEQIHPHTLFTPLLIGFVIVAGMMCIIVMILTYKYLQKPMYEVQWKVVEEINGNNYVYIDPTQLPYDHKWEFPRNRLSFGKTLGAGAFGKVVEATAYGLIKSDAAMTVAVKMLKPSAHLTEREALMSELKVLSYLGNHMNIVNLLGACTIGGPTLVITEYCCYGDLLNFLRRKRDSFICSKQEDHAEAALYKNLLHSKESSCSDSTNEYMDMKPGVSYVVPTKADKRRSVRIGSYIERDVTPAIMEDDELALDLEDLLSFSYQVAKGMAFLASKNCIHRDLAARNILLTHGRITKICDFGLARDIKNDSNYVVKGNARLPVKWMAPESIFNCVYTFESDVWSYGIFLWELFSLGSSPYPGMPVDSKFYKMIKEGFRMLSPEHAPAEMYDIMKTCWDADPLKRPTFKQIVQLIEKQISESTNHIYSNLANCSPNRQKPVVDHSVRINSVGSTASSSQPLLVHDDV
UniProt P17948, 27-1338 limits assumed: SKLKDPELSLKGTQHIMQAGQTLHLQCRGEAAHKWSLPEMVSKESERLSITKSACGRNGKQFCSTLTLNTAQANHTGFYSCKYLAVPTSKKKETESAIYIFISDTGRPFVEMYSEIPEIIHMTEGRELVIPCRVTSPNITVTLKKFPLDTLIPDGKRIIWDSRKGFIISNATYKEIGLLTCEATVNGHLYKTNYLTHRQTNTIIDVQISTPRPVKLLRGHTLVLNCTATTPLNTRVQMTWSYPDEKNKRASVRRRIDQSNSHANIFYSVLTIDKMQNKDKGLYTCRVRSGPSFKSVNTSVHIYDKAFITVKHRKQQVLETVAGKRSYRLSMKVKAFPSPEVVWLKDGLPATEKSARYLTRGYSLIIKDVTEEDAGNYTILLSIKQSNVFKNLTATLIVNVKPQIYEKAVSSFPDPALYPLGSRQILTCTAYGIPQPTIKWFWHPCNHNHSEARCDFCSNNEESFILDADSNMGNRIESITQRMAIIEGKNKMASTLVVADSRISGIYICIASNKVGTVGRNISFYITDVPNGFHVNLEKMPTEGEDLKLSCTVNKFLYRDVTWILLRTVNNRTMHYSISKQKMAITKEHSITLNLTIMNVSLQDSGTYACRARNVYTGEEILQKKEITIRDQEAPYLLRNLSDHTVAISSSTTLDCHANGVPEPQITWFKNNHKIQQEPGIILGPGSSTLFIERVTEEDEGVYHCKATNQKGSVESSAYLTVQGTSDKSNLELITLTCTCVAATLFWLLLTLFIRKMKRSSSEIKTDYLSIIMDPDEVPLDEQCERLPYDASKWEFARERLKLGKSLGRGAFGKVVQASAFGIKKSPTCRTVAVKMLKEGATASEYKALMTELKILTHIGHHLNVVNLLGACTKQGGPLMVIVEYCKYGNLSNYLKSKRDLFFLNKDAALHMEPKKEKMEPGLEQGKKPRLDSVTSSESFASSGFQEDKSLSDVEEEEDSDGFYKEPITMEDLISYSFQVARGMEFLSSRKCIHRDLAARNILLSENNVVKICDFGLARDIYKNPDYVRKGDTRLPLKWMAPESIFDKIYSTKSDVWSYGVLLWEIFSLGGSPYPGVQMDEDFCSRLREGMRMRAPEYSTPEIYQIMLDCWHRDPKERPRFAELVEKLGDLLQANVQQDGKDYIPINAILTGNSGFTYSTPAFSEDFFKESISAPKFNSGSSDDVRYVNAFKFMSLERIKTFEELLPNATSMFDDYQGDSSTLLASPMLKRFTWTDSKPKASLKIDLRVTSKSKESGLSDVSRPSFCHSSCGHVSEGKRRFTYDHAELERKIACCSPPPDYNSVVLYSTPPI
UniProt P29320, 21-983 limits assumed: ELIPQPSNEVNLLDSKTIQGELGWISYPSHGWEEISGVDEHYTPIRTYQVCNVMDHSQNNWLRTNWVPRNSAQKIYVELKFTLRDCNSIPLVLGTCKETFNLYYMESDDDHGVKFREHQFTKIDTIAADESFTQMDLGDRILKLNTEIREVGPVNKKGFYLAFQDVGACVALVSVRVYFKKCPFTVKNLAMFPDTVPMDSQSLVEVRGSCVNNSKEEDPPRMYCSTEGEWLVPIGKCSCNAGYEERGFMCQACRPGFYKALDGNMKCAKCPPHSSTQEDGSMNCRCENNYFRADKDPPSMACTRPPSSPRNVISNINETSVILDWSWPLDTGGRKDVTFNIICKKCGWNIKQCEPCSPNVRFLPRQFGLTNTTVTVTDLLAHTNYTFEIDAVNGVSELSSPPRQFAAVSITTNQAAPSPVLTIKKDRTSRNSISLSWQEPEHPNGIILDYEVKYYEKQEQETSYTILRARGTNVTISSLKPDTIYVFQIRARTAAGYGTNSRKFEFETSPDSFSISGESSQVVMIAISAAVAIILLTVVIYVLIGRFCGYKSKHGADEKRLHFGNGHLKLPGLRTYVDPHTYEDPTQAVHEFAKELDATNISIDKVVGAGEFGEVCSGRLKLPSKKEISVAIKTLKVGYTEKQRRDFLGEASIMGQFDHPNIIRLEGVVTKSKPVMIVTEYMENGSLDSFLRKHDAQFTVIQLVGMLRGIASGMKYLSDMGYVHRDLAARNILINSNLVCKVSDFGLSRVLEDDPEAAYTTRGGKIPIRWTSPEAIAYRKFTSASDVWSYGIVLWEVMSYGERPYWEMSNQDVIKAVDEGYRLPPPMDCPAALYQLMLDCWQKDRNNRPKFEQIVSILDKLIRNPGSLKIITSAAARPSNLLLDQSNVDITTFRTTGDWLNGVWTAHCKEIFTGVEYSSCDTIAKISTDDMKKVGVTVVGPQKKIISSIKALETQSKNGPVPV
UniProt Q15418, whole entry: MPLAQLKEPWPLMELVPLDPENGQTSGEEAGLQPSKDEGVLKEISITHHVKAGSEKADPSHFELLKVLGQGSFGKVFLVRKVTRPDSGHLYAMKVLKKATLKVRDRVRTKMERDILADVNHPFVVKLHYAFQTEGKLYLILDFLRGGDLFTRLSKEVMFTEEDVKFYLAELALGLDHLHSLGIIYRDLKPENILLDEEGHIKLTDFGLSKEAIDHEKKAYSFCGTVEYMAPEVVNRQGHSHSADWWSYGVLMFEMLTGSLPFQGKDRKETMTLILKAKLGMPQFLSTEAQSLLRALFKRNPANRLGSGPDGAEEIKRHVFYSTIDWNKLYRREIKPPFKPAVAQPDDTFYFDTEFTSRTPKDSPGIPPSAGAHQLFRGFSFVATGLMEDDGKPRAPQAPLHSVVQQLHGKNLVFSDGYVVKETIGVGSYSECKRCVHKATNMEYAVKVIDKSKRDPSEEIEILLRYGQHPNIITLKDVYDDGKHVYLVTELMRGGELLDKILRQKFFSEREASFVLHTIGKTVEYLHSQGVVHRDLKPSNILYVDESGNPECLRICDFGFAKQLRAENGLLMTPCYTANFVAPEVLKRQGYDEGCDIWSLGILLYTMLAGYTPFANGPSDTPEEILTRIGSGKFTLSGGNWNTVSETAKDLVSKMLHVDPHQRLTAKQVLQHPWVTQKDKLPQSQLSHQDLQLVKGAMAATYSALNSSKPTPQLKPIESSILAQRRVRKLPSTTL
UniProt Q16832, 22-855 limits assumed: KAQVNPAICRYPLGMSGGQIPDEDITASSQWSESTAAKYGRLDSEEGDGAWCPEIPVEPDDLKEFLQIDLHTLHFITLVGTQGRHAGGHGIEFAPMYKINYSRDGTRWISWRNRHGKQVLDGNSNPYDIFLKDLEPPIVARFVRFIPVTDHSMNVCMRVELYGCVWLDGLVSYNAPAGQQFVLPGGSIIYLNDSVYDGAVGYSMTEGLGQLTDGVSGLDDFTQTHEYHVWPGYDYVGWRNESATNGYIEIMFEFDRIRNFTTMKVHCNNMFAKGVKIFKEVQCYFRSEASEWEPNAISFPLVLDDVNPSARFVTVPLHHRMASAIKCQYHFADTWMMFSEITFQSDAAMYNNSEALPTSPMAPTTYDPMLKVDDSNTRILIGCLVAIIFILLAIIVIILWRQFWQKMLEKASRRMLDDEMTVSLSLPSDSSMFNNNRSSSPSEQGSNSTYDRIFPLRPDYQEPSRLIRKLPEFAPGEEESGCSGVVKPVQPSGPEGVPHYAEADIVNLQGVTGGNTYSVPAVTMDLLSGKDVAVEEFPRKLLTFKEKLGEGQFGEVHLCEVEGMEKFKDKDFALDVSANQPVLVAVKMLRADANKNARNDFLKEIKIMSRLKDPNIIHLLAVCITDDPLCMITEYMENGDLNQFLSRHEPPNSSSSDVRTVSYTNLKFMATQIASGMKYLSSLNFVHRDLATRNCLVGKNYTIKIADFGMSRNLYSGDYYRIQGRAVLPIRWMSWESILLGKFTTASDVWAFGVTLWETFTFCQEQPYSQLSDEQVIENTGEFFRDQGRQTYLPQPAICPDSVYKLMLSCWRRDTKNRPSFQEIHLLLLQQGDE

Legend:
[1] = test system: SKOV3; test: Cell growth inhibition, SKOV3 (CCK-8); conditions: read-out: Cell growth inhibition GI50, SKOV3, 72 hours
[2] = target: PKACG (Homo sapiens, UniProt P22612); test: Kinase panel inhibition, PKACG; conditions: 1 μM
[3] = target: PYK2 (Homo sapiens, UniProt Q14289); test: Kinase panel inhibition, PYK2; conditions: 1 μM
[4] = target: RET (Homo sapiens, UniProt P07949); test: Kinase panel inhibition, RET; conditions: 1 μM
[5] = target: full kinase panel (Homo sapiens, UniProt O75716); test: Full kinase panel inhibition by Example compounds 8 and 51 at 1 μM (Tables 11 to 14; kinase named in each table line); conditions: STK16
[6] = target: full kinase panel (Homo sapiens, UniProt O94804); test: as above; conditions: LOK/STK10
[7] = target: full kinase panel (Homo sapiens, UniProt P00519); test: as above; conditions: ABL1
[8] = target: full kinase panel (Homo sapiens, UniProt P06239); test: as above; conditions: LCK
[9] = target: full kinase panel (Homo sapiens, UniProt P07333); test: as above; conditions: FMS
[10] = target: full kinase panel (Homo sapiens, UniProt P08922); test: as above; conditions: ROS/ROS1
[11] = target: full kinase panel (Homo sapiens, UniProt P10721); test: as above; conditions: C-KIT
[12] = target: full kinase panel (Homo sapiens, UniProt P17948); test: as above; conditions: FLT1/VEGFR1
[13] = target: full kinase panel (Homo sapiens, UniProt P29320); test: as above; conditions: EPHA3
[14] = target: full kinase panel (Homo sapiens, UniProt P29376); test: as above; conditions: TYK1/LTK
[15] = target: full kinase panel (Homo sapiens, UniProt P41240); test: as above; conditions: CSK
[16] = target: full kinase panel (Homo sapiens, UniProt P42681); test: as above; conditions: TXK
[17] = target: full kinase panel (Homo sapiens, UniProt Q15303); test: as above; conditions: ERBB4/HER4
[18] = target: full kinase panel (Homo sapiens, UniProt Q15375); test: as above; conditions: EPHA7
[19] = target: full kinase panel (Homo sapiens, UniProt Q15418); test: as above; conditions: RSK1
[20] = target: full kinase panel (Homo sapiens, UniProt Q16832); test: as above; conditions: DDR2
[21] = target: full kinase panel (Homo sapiens, UniProt Q56UN5); test: as above; conditions: YSK4/MAP3K19
[22] = target: full kinase panel (Homo sapiens, UniProt Q92918); test: as above; conditions: HPK1/MAP4K1
[23] = target: full kinase panel (Homo sapiens, UniProt Q96SB4); test: as above; conditions: SRPK1
[24] = target: full kinase panel (Homo sapiens, UniProt Q9NRM7); test: as above; conditions: LATS2
[25] = target: full kinase panel (Homo sapiens, UniProt Q9UKE5); test: as above; conditions: TNIK
[26] = target: full kinase panel (Homo sapiens, UniProt Q9Y2U5); test: as above; conditions: MEKK2

For `Cc1cn(-c2cc(C(=O)Nc3ccc(C)c(N4Cc5cnc(NC6CC6)nc5C5(CC5)C4=O)c3)cc(C(F)(F)F)c2)cn1`, the GI50 [1] was less than 5 µM, the “kinase inhibited by 60% or more” value [2] was “◯ (residual enzyme activity values were 40% or less, i.e., inhibited by 60% or more)” and the “kinase inhibited by 60% or more” value [3] was “◯ (residual enzyme activity values were 40% or less, i.e., inhibited by 60% or more)”. The “kinase inhibited by 60% or more” value [4] was “◯ (residual enzyme activity values were 40% or less, i.e., inhibited by 60% or more)”, the “kinase inhibition (residual enzyme activity)” value [5] was “◯ (residual enzyme activity values were 40% or less, i.e., inhibited by 60% or more)” and the “kinase inhibition (residual enzyme activity)” value [6] was “◯ (residual enzyme activity values were 40% or less, i.e., inhibited by 60% or more)”. For the same compound, the “kinase inhibition (residual enzyme activity)” value [7] was “◯ (residual enzyme activity values were 40% or less, i.e., inhibited by 60% or more)”, the “kinase inhibition (residual enzyme activity)” value [8] was “◯ (residual enzyme activity values were 40% or less, i.e., inhibited by 60% or more)” and the “kinase inhibition (residual enzyme activity)” value [9] was “◯ (residual enzyme activity values were 40% or less, i.e., inhibited by 60% or more)”. The “kinase inhibition (residual enzyme activity)” value [10] was “◯ (residual enzyme activity values were 40% or less, i.e., inhibited by 60% or more)”, the “kinase inhibition (residual enzyme activity)” value [11] was “◯ (residual enzyme activity values were 40% or less, i.e., inhibited by 60% or more)” and the “kinase inhibition (residual enzyme activity)” value [12] was “◯ (residual enzyme activity values were 40% or less, i.e., inhibited by 60% or more)”. The “kinase inhibition (residual enzyme activity)” value [13] was “◯ (residual enzyme activity values were 40% or less, i.e., inhibited by 60% or more)”, the “kinase inhibition (residual enzyme activity)” value [14] was “◯ (residual enzyme activity values were 40% or less, i.e., inhibited by 60% or more)” and the “kinase inhibition (residual enzyme activity)” value [15] was “◯ (residual enzyme activity values were 40% or less, i.e., inhibited by 60% or more)”. The “kinase inhibition (residual enzyme activity)” value [16] was “◯ (residual enzyme activity values were 40% or less, i.e., inhibited by 60% or more)”, the “kinase inhibition (residual enzyme activity)” value [17] was “◯ (residual enzyme activity values were 40% or less, i.e., inhibited by 60% or more)” and the “kinase inhibition (residual enzyme activity)” value [18] was “◯ (residual enzyme activity values were 40% or less, i.e., inhibited by 60% or more)”. For the same compound, the “kinase inhibition (residual enzyme activity)” value [19] was “◯ (residual enzyme activity values were 40% or less, i.e., inhibited by 60% or more)”, the “kinase inhibition (residual enzyme activity)” value [20] was “◯ (residual enzyme activity values were 40% or less, i.e., inhibited by 60% or more)” and the “kinase inhibition (residual enzyme activity)” value [21] was “◯ (residual enzyme activity values were 40% or less, i.e., inhibited by 60% or more)”. The “kinase inhibition (residual enzyme activity)” value [22] was “◯ (residual enzyme activity values were 40% or less, i.e., inhibited by 60% or more)”, the “kinase inhibition (residual enzyme activity)” value [23] was “◯ (residual enzyme activity values were 40% or less, i.e., inhibited by 60% or more)” and the “kinase inhibition (residual enzyme activity)” value [24] was “◯ (residual enzyme activity values were 40% or less, i.e., inhibited by 60% or more)”. The “kinase inhibition (residual enzyme activity)” value [25] was “◯ (residual enzyme activity values were 40% or less, i.e., inhibited by 60% or more)” and the “kinase inhibition (residual enzyme activity)” value [26] was “◯ (residual enzyme activity values were 40% or less, i.e., inhibited by 60% or more)”.
